From PubChem BioAssay AID743255 (National Center for Advancing Translational Sciences (NCATS), 2014) come the findings set out here.

The chains behind the UniProt entries cited, without tags or fusion partners. Where a name states a change or a piece, a line headed by the entry shows the natural chain unless it says otherwise.
UniProt O94782: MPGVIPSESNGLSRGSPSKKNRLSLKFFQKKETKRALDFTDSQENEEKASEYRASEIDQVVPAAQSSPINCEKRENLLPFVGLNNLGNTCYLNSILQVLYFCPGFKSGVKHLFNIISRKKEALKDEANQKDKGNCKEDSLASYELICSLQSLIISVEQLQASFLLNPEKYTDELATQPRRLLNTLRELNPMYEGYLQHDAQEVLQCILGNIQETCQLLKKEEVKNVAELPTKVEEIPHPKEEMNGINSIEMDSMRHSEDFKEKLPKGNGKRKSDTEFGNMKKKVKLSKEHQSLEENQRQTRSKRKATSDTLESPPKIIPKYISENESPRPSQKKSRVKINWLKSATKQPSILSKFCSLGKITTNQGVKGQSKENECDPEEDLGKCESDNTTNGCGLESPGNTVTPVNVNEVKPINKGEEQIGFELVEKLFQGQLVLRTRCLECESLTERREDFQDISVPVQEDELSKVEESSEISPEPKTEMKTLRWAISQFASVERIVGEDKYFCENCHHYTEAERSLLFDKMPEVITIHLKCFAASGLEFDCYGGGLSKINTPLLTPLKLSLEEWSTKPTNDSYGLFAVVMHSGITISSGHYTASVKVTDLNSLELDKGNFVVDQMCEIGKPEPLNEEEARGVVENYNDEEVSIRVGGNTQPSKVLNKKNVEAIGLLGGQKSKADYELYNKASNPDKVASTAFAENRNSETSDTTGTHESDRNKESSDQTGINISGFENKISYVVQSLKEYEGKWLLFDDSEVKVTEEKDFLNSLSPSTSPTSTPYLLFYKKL

The list shows a part of the results, in another mix than the full data. Inconclusive results are not listed. Active and inactive are the calls of the source. The call rests on the fitted dose curve; in most records, active means well fitted inhibition curve with a large enough effect; inconclusive means small, poorly fitted or top-dose-only effect; inactive means no such curve, though single readings can be large or run the other way.
On the % scale 0 is the no-effect control and ±100 the full control effect.

The target of the assay is Ubiquitin carboxyl-terminal hydrolase 1 (Homo sapiens) (UniProt O94782). Nature of the assay: Inhibitors of USP1/UAF1: Primary Screen. Further: nearly all actives have a fitted effect of over 60% in size. To be noted: recombinant USP1/UAF1, Ub-Rhodamine cleavage fluorescence; at 57.1 µM (top of the series). An excerpt:
Deubiquitinating enzymes (DUBs) are a class of enzymes that can cleave isopeptide bond formed between the C-terminal carboxylate of ubiquitin and a lysine side-chain amino group on the target protein. Among them, ubiquitin specific proteases (USPs) constitute the largest DUB family. Human USPs are emerging as promising targets for pharmacological intervention because of their connection to a number of human diseases, including prostate, colon and breast cancer (1, 2), pediatric acute lymphoblastic leukemia (3), and familial cylindromatosis (4). The advantage of inhibiting USPs lies in the potential specificity of therapeutic intervention that can lead to better efficacy and reduce nonspecific side effects. In a collaboration between the University of Delaware and the NIH Chemical Genomics Center, a high-throughput screen assay was developed to screen for USP1/UAF1 inhibitors. This miniaturized assay has a fluorescent read-out and is used to screen the NIH Molecular Libraries Small Molecule Repository (MLSMR) in order to identify a small molecule that inhibits USP1. NIH Chemical Genomics Center [NCGC] NIH Molecular Libraries Probe Centers Network [MLPCN] MLPCN Grant: DA030552 Assay Submitter (PI): Zhihao Zhuang, University of Delaware 1. Priolo, C., et al. (2006) The isopeptidase USP2a protects human prostate cancer from apoptosis. Cancer Res 66, 8625-8632 2. Popov, N., et al. (2007) The ubiquitin-specific protease USP28 is required for MYC stability. Nat Cell Biol 9, 765-774 3. De Pitta, C., et al. (2005) A leukemia-enriched cDNA microarray platform identifies new transcripts with relevance to the biology of pediatric acute lymphoblastic leukemia. Haematologica 90, 890-898 4. Kovalenko, A., et al. (2003) The tumour suppressor CYLD negatively regulates NF-kappaB signalling by deubiquitination. Nature 424, 801-805
3 microliters of reagents (buffer in columns 3 and 4 as negative control and 1nM USP1/UAF1 complex in columns 1, 2, and 5-48) are dispensed into Greiner black solid bottom 1536-well assay plates. Compounds are then transferred via Kalypsys pin tool equipped with 1536-pin array (10nl slotted pins, V&P Scientific, San Diego, CA). Following an incubation step of 15 min at room temperature, 1ul of Ub-Rho substrate (150nM final concentration) is added to initiate the reaction. The plates are immediately centrifuged at 1000 rpm for 15 seconds, and subsequently transferred to a ViewLux high-throughput CCD imager (PerkinElmer) wherein kinetic measurements of fluorescence are acquired using 480 nm excitation/540 nm emission filter set (6 reads every 60 seconds, see Table 1). All reagents are diluted in an assay buffer consisting of 50mM HEPES (pH 7.8), 0.5mM EDTA, 0.1 mg/ml BSA, 1mM TCEP, and 0.01% Tween-20.
As to `Cc1cc(SC(NC(=O)c2ccc(F)cc2)C(Cl)(Cl)Cl)ncn1` (configuration not stated), the activity change, negative = inhibition is inactive: -6.79%.

In the case of `CCOP(=O)(Nc1ccccc1)OCC`, the activity change, negative = inhibition is inactive: -23.3%. For `CC(C)(C)C(=O)NC(Sc1ccncn1)C(Cl)(Cl)Cl` (configuration not stated) the value was inactive: -22.8%; for `O=[N+]([O-])c1ncn(CCn2ncnc2[N+](=O)[O-])n1`, inactive: -4.29%. Take `COC(=O)C1(C)COP(=O)(Nc2ccccc2)OC1` (configuration not stated): the activity change, negative = inhibition is inactive: -18.6%. As for `O=[N+]([O-])c1cccc(NC2=NCC(CBr)S2)c1` (configuration not stated), the activity change, negative = inhibition was inactive: -26%. For `O=C(O)CNc1ccc([As](=O)(O)O)cc1`, the activity change, negative = inhibition was inactive: -5.38%. For `O=P1(N(CCCl)CCCl)OCCCS1` (configuration not stated), the activity change, negative = inhibition was inactive: -21.4%.

On to `O=C(Nc1cc([As](=O)(O)O)ccc1O)c1ccccc1`, for which the activity change, negative = inhibition is inactive: -1.6%.

As to `Nc1ccc([As](=O)(O)c2ccc(N)cc2)cc1`, the activity change, negative = inhibition is inactive: -17.6%. Regarding `CCN(/C(=N/P(=O)(N1CCOCC1)N1CCOCC1)N1CCOCC1)c1ccc(OC)cc1`, the activity change, negative = inhibition was inactive: 3.98%.

As for `CN(C)C(=O)OCCc1n(C)cc[n+]1C`, the activity change, negative = inhibition was inactive: -18.7%. As for `CC(C)c1nc(Nc2ccccc2)n(P(=O)(N(C)C)N(C)C)n1`, the activity change, negative = inhibition is inactive: -21.5%.

Turning to `CC(C)=N/N=C(\N)N[N+](=O)[O-]`, the activity change, negative = inhibition was inactive: -18.9%.

Take `CC1CCN(C(=O)Oc2c(Cl)cc(Cl)c3cccnc23)CC1`: the activity change, negative = inhibition was inactive: -16.6%. For `c1cc(-c2nn[nH]n2)ccc1-c1nn[nH]n1`, the activity change, negative = inhibition was inactive: -23.6%.

With `COc1ccc(C2=NCC(CBr)S2)cc1` (configuration not stated), the activity change, negative = inhibition was inactive: -19.4%.

On to `CC(=O)N1C2C3N(C(C)=O)C1C1N(C(C)=O)C(C(N1C(C)=O)N3C(C)=O)N2C(C)=O`, for which the activity change, negative = inhibition was inactive: -24.1%. Turning to `O=[N+]([O-])c1cccc2n[nH]nc12`, the activity change, negative = inhibition is inactive: 0.825%. The same measure for `O=[N+]([O-])c1cc([N+](=O)[O-])c(CCNc2ccccc2)c([N+](=O)[O-])c1`: inactive: -10.3%; for `Cc1ccc(NP(=O)(Oc2ccccc2)Oc2ccccc2)nc1`: inactive: -17.2%; for `O=P(Nc1nccs1)(c1ccccc1)c1ccccc1`: inactive: -17.8%.

On to `CC(C)C(=O)NC(Sc1ccccc1)C(Cl)(Cl)Cl` (configuration not stated), for which the activity change, negative = inhibition was inactive: -16.2%. Regarding `c1nnnn1CCn1cnnn1`, the activity change, negative = inhibition was inactive: -11.5%.

In the case of `O=[N+]([O-])c1ncn(CCn2cnc([N+](=O)[O-])n2)n1`, the activity change, negative = inhibition is inactive: -8.8%. In the case of `CC(=O)NC(SC(=S)N(C)C)C(Cl)(Cl)Cl` (configuration not stated), the activity change, negative = inhibition was inactive: 1.42%.

For the compound `O=[N+]([O-])c1ccc(O)c(/C=N/Nc2ccc([N+](=O)[O-])cc2[N+](=O)[O-])c1`, the activity change, negative = inhibition was inactive: -1.89%.

`O=[As](O)(c1ccccc1)c1ccc(O)cc1`: the activity change, negative = inhibition was inactive: -6.36%.

For `C(Cc1nn[nH]n1)Cc1nn[nH]n1`, the activity change, negative = inhibition was inactive: -13.7%. Turning to `Nc1ccc([As](=O)(O)c2ccc([N+](=O)[O-])cc2)cc1`, the activity change, negative = inhibition was inactive: -6.12%. The same measure for `O=C(OC1CN2CCC1CC2)c1cccc(Cl)c1` (configuration not stated): inactive: -8.41%. Turning to `COc1ccc(N)c([N+](=O)[O-])c1[N+](=O)[O-]`, the activity change, negative = inhibition is inactive: -7.13%. In the case of `CN(C)C1(CNC(=O)c2ccc(Cl)c(S(N)(=O)=O)c2)CCCCC1`, the activity change, negative = inhibition was inactive: -8.85%.

Regarding `O=P(Nc1ccccn1)(c1ccc(Br)cc1)c1ccc(Br)cc1`, the activity change, negative = inhibition was inactive: -15.5%. The same measure for `C[C@H]1OP(=O)(Oc2ccccc2)[C@H](O)[C@H](O)[C@H]1N=[N+]=[N-]` (some centres not stated): inactive: -27.4%.

With `O=P(Nc1nc2ccccc2s1)(c1ccccc1)c1ccccc1`, the activity change, negative = inhibition was inactive: -11.6%.

With `Cc1ccc(OP(=O)(Nc2ccccn2)Oc2ccc(C)cc2)cc1`, the activity change, negative = inhibition is inactive: 0.619%. Take `CC(=O)NC(SC(=S)N(CC(C)C)CC(C)C)C(Cl)(Cl)Cl` (configuration not stated): the activity change, negative = inhibition is inactive: -9.42%.

Regarding `COC(=O)c1cc2c(s1)N=C(c1ccccc1)N(C)P2(=O)N1CCOCC1` (configuration not stated), the activity change, negative = inhibition is inactive: -6.51%.

Regarding `CCC(=O)N1C2C3N(C(=O)CC)C1C1N(C(=O)CC)C(C(N1C(=O)CC)N3C(=O)CC)N2C(=O)CC`, the activity change, negative = inhibition is inactive: 3.12%.

For the compound `O=C(OC1CN2CCC1CC2)c1ccccc1` (configuration not stated), the activity change, negative = inhibition was inactive: -1.72%. The same measure for `O=c1c2cc([N+](=O)[O-])ccc2[nH]c2c([N+](=O)[O-])cc([N+](=O)[O-])cc12`: inactive: -18.7%; for `CN(C)C(=O)Oc1noc2ccccc12`: inactive: -13.6%.

In the case of `CC(NC(=O)COC(=O)C(O)(c1ccccc1)c1ccccc1)c1ccccc1` (configuration not stated), the activity change, negative = inhibition is inactive: -7.57%.

On to `Cc1ccccc1OP(=O)(Nc1ccccn1)Oc1ccccc1C`, for which the activity change, negative = inhibition is inactive: -13%. For `O=C(NC1CCS(=O)(=O)C1)NP(=S)(Oc1ccccc1)Oc1ccccc1` (configuration not stated) the value was inactive: -3.98%; for `CCNC(=S)/N=C(\N)N[N+](=O)[O-]`, inactive: -5.98%; for `Cc1ccc(NP(=O)(Oc2cccc(C)c2)Oc2cccc(C)c2)nc1`, inactive: -26.1%.

For the compound `c1ccc(-c2nn[nH]n2)c(-c2nn[nH]n2)c1`, the activity change, negative = inhibition is inactive: -17.6%. In the case of `O=P1(N(CCCl)CCCl)OCCC2CCCCN21` (configuration not stated), the activity change, negative = inhibition was inactive: -13.3%. The same measure for `COC(=O)C1(C)COP(=O)(NCc2ccccc2)OC1` (configuration not stated): inactive: -12.9%; for `CC(=O)c1ccc(N2CC2c2ccncc2)cc1` (configuration not stated): inactive: -16.7%; for `N#C/C(=C\c1ccc(N(CCBr)CCBr)cc1)C(N)=O`: inactive: -7.25%. As for `C[C@H]1OP(=O)(Oc2ccccc2)C[C@@H]2O[C@@H]21` (some centres not stated), the activity change, negative = inhibition is inactive: -1.39%. Consider `C[C@@H]1C=CCP(=O)(Oc2ccccc2)O1` (some centres not stated), for which the activity change, negative = inhibition was inactive: -24.2%. The same measure for `Cc1ccccc1CN(C)C(=O)COC(=O)C(O)(c1ccccc1)c1ccccc1`: inactive: -2.42%. Regarding `CC(=O)Nc1ccc(Oc2c([N+](=O)[O-])cc([N+](=O)[O-])cc2[N+](=O)[O-])cc1`, the activity change, negative = inhibition is inactive: -20.1%.

With `CC(=O)Nc1ccc([As](=O)(O)O)c(O)c1`, the activity change, negative = inhibition was inactive: -21.5%. For `CCOc1ccc(C2=NCC(CBr)S2)cc1` (configuration not stated) the value was inactive: -7.59%; for `O=P1(Nc2nc3ccc(Cl)cc3s2)COc2ccccc2O1` (configuration not stated), inactive: -18.5%. For `CCc1cc(O)c([N+](=O)[O-])c(C)c1[N+](=O)[O-]` the value was inactive: -19.5%. `CC(C)(C)C(=O)NC(Sc1ccccc1)C(Cl)(Cl)Cl` (configuration not stated): the activity change, negative = inhibition was inactive: -26.5%.
